Data: PubChem BioAssay AID2642 (Johns Hopkins Ion Channel Center, 2010)
The list shows a part of the results, in another mix than the full data. Some results for these compounds are left out of this collection, so the calls shown say nothing about other tests. Activity calls are given as the source filed them.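 Rule for the calls: active = compounds whose thallium flux B-score, printed positive for inhibition, exceeds three library SD while starting fluorescence stays within three; inactive = the rest.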

Protein sequences, listed by entry. Tags and fused reporters are not part of them.
UniProt P51787, whole entry: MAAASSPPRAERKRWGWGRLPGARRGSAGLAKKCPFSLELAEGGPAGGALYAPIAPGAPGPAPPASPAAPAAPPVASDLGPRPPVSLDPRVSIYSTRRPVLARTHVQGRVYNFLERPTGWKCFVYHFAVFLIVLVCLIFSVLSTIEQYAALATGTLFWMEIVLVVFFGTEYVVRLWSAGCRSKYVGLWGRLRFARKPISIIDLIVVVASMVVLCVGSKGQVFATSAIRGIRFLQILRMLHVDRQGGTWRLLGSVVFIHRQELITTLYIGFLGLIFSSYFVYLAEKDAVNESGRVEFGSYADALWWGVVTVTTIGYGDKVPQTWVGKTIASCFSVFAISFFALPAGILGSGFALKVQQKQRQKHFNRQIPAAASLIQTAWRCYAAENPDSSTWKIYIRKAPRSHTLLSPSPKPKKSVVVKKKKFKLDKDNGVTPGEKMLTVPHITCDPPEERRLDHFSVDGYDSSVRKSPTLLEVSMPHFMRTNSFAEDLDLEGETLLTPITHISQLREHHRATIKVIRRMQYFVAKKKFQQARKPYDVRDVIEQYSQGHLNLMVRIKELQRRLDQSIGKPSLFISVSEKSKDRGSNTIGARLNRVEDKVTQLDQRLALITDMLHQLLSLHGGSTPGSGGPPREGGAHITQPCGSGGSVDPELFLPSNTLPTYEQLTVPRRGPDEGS

What follows are molecules tested against Potassium voltage-gated channel subfamily KQT member 1 (Homo sapiens) (UniProt P51787) (assay: KCNQ1 potassium current blockers – cell-based, thallium flux, high-throughput, primary screen (AID 2642;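 note: channel opened by potassium depolarization with thallium stimulus after 20 min compound exposure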)). Conditions: CHO-K1 KCNQ1, FluxOR thallium flux fluorescence; at 10 µM.
With O=C(NCC1(N2CCCCC2)CCCCC1)c1cc(F)c(F)cc1Cl the outcome was “inactive”. In the case of C=CCN1CCN(CCOC(=O)C(O)(c2ccccc2)c2ccccc2)CC1, the outcome is reported as “inactive”. For COc1ccc(C(=O)NCC2(N(C)C)CCCCC2)cc1, the outcome was “inactive”. In the case of O=C(NCC1(N2CCCCC2)CCCCC1)c1cccc(Br)c1, the outcome is reported as “inactive”. Cc1cc(C(=O)NCC2(N3CCCCC3)CCCCC2)ccc1[N+](=O)[O-] was tested, and the outcome was “inactive”. With CCN1CCCC(OC(=O)C2(O)c3ccccc3C=Cc3ccccc32)C1 (centres undefined) the outcome was “inactive”. In the case of CN(C)C1CCCC1OC(=O)C(O)(c1ccccc1)c1ccccc1 (centres undefined), the outcome is reported as “inactive”. For CN(C)c1ccc(C(=O)NCC2(N(C)C)CCCCC2)cc1, the outcome was “inactive”. With Cc1ccccc1C(=O)NCC1(N2CCCCC2)CCCCC1 the outcome was “inactive”. In the case of COc1cc(SC)ccc1C(=O)NCC1(N(C)C)CCCCC1, the outcome is reported as “inactive”. For CCN(CC)CC(C)C(C)OC(=O)C(O)(c1ccccc1)c1ccccc1 (centres undefined), the outcome was “inactive”. CC(C)N1C(=O)CC2(CCN(CCOC(=O)C(O)(c3ccccc3)c3ccccc3)CC2)C1=O was tested, and the outcome was “inactive”. For Cc1ccc(C(=O)NCC2(N3CCCCC3)CCCCC2)cc1, the outcome was “inactive”. O=C(NCC1(N2CCCCC2)CCCCC1)c1cc([N+](=O)[O-])ccc1Cl was tested, and the outcome was “inactive”. CN1[C@@H]2CC[C@H]1CC(OC(=O)C(O)(c1ccccc1)c1ccccc1)C2 (some centres undefined) was tested, and the outcome was “inactive”. With COc1ccc(Br)c(C(=O)NCC2(N3CCCCC3)CCCCC2)c1 the outcome was “inactive”. CC(C)Oc1ccc(C(=O)NCC2(N(C)C)CCCCC2)cc1 was tested, and the outcome was “inactive”. With CN(C)c1cccc(C(=O)NCC2(N(C)C)CCCCC2)c1 the outcome was “inactive”. O=C(OC1CN2CCC1CC2)C(CO)(c1ccccc1)c1ccccc1 (centres undefined) was tested, and the outcome was “inactive”. For COc1ccc(Cl)cc1C(=O)NCC1(N(C)C)CCCCC1, the outcome was “inactive”. For COc1cccc(C(=O)NCC2(N3CCCCC3)CCCCC2)c1, the outcome was “inactive”. With O=C(NCC1(N2CCCCC2)CCCCC1)c1cccc(Cl)c1 the outcome was “inactive”. With CN(C)C1(CNC(=O)c2ccc(Br)cc2)CCCCC1 the outcome was “inactive”. COc1cc(C(=O)NCC2(N(C)C)CCCCC2)c([N+](=O)[O-])cc1OC was tested, and the outcome was “inactive”.
